Measured values: BindingDB's records for doi:10.1038/304065a0 (Hoechst Pharmaceutical Research Laboratories, 1983)

By UniProt entry, the sequences of proteins in these tests, tags left out.
UniProt P47747, whole entry: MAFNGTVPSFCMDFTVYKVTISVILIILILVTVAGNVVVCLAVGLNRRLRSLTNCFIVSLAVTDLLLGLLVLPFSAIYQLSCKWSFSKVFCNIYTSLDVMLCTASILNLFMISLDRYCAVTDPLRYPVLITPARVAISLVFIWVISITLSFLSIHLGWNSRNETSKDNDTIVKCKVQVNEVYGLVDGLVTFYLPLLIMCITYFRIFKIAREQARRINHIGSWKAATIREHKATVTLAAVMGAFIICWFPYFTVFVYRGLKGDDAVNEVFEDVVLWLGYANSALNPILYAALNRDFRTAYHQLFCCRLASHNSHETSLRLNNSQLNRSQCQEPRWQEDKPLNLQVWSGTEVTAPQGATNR

Biological target: Histamine H2 receptor (Cavia porcellus, UniProt P47747)

SMILES	Ki
CN/C(=N/CCSCc1nc[nH]c1C)NC#N [N-methyl-N-[2-(5-methyl-1H-4-imidazolylmethylsulfanyl)ethyl]-1-cyanoiminomethanediamine]	470 nM
CNC(=NCCSCc1csc(N=C(N)N)n1)NC#N [[3H]tiotidine]	34 nM
